For the assay, the target named is Prostaglandin G/H synthase 1 (Homo sapiens, UniProt P23219). Format: tissue-based, Blood.

The chains behind the UniProt entries cited, without tags or fusion partners.
UniProt P23219, whole entry: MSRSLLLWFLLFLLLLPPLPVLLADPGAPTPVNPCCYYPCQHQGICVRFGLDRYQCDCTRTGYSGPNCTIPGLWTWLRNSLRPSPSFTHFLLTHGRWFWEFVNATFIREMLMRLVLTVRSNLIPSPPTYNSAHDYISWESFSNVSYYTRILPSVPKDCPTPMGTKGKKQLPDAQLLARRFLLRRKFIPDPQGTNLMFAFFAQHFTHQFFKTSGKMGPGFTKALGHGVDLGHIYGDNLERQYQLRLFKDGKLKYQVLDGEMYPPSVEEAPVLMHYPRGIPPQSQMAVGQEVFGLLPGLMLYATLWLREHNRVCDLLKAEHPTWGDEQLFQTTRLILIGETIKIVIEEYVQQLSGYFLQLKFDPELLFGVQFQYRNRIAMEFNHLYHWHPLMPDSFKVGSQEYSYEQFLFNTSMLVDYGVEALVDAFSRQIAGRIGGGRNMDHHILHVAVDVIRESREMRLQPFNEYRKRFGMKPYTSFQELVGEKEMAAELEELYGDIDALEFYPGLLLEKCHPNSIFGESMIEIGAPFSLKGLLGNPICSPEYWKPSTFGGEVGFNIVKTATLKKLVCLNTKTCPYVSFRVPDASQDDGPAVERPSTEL

The compound `CC1(C)OC(=O)C(Sc2ccccc2)=C1c1ccc(S(C)(=O)=O)cc1` had an IC50 of 58 µM.

Source of the values: ChEMBL document CHEMBL1132677, “A new structural variation on the methanesulfonylphenyl class of selective cyclooxygenase-2 inhibitors” (Bioorg Med Chem Lett, 1999).
